# Antibody variant affinities, Ab-14 light chain, assay B

The target is the same throughout: PDVDLGDISGINAS, from the HR2 region of SARS-CoV-2 spike.

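The parent was found by panning a naive human phage display library on the peptide. This is the validation round: designs drawn from the data on random variants, tested in the same kind of assay. Group labels follow the data file (Ctrl: baseline library sampled from a position-specific scoring matrix, with some repeated check sequences; Rand: our label for a block that the file lists under HC and that is probably the random mutants of the ten best first-round binders; En: ensemble of fine-tuned language models; GP: Gaussian process model; HC: hill climbing; Gen: genetic algorithm; Gibbs: Gibbs sampling; a sequence that several methods proposed may carry one label only). In AlphaSeq, yeast of one mating type display the scFv and yeast of the other type display the target. Pairs that bind mate more often; barcode pairs of the diploids are counted by sequencing. The ratio of observed to expected reads was calibrated, replicate by replicate, on BCL2-family standards whose Kd was known from biolayer interferometry. Each pool was mated in six replicate cultures.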

Parent scFv Ab-14: VH joined to VL by three GGGGS repeats. Changes lie in the light chain CDRs alone.
VH: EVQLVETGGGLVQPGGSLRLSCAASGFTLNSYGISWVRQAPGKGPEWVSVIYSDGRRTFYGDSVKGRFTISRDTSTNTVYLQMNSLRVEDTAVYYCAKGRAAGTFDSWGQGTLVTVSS
VL: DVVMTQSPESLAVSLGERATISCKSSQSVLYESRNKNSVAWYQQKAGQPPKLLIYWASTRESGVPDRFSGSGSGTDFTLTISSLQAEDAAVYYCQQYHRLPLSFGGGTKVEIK

The parent's light chain CDRs are KSSQSVLYESRNKNSVA, WASTRES, QQYHRLPLS; each variant's own CDRs replace them letter for letter. The Kd shown is the geometric mean over detected replicates; a lower Kd is a better binder. A pair that was not seen in any replicate is written "no signal"; this usually means weak binding, but a binder can also be missed. As a blank, each scFv also met three strains without target: over all light chain designs, 4% of these pairings were detected, typically at 430 nM and seldom below 38 nM. The range of this assay differs from that of the first round, and the authors advise against merging the two. The authors' rule: three or more of the six replicates give a measured affinity, fewer mean a poor binder.

CDR-L1,CDR-L2,CDR-L3,group,Kd,replicates with signal
KLEGSQLYESRNKNSVA,EASTRES,QQYHRLPLS,GP_Gen,1.3 nM,6 of 6
KSSQSWLHESRNENSVA,SASTRES,QQYHRMPLS,Ctrl,1.8 nM,6 of 6
AISMHAFYGQRDENGIA,GADVRAK,QQYWRLPLT,En_Gibbs,4.1 nM,6 of 6
KLQQSVEYESRNKNSVA,DASTRES,QQYHRLPLS,GP_Gen,290 pM,6 of 6
KSSQSVLYESRHFNSVA,AASERES,QQYHRLPLE,Ctrl,9.2 nM,6 of 6
KFSQSVLYEERNKNSVA,WASTRES,QQYHGLPLS,Ctrl,130 nM,5 of 6
KLSQSVLYESRNKNSVA,HASQRES,QDYHRLPLS,GP_Gen,1.4 nM,6 of 6
SIYDATGMESRNKNPIA,DVSTRPN,QQYHRLPLS,En_HC,920 pM,6 of 6
KLQQSMWYESRNKNSVA,QASQREV,QQYHRLPLS,GP_Gibbs,1.7 nM,6 of 6
KLSQSELYEERNDNSVA,SASQRES,QQYHRLPLS,GP_Gibbs,4.5 nM,6 of 6
KLQQSMPYESRNKNSVA,NASTRES,QQYHRLPLS,GP_Gen,1.9 nM,6 of 6
LIKGMVEGQLYKQNAIA,NSEERDR,QQYNHLPLS,En_Gibbs,6.6 nM,6 of 6
KSSQSVGYMSRNKNSVA,WASTRES,QQYVRLPLS,Ctrl,no signal,0 of 6
NFSQMVLTGSTLRNSVA,HAQTREE,QQYHRLPLI,En_HC,11 nM,6 of 6
HMSMITMLGSRNRNSVA,QMTTREN,QQYDRLPLA,En_Gen,3.0 nM,6 of 6
MISQLYNFGTFAINSVA,QASLRCN,QQYDRLPLM,En_Gen,93 nM,2 of 6
KISQMVRVGSTHKNSIA,EEATRAD,QQYHRLPLA,En_Gen,2.7 nM,6 of 6
MMSQVTGQGQRHRNNVA,QTETREP,QQYDRLPLI,En_Gen,3.2 nM,6 of 6
KYSQNVLYESRNKNSVA,WASTRES,QLYTRLPLS,Ctrl,no signal,0 of 6
KLDGSTLYESRNPNSVA,WASTRES,QQYHRLPLS,GP_HC,790 pM,6 of 6
KSSQSVLYPSRNKNSVA,SASTRES,QQYHVLPLS,Ctrl,13 nM,6 of 6
HLSWDVLYESRNKNSVA,NASTRES,QQYHRLPLS,GP_HC,560 pM,6 of 6
KLRESQHVESKQKNNVA,DNSTRES,QDYHRLPLS,En_HC,180 nM,6 of 6
KSSQSWLYESRNKNSVA,WASTRES,QQYHRLPLS,Ctrl,51 nM,2 of 6
KLMQLVLYESRNKNSVA,NASTREQ,QQYHRLPLS,GP_Gibbs,2.2 nM,6 of 6
RLLDWAYGWTAKERNIA,DEDIRGA,QQYSHLPLA,En_Gibbs,no signal,0 of 6
KSSQSVLYESRGKNSVA,WASTRES,QQMHRLPLS,Ctrl,86 nM,3 of 6
KLSQSVQYESRNKNSVA,WRSKRES,QQPHRTPLS,Ctrl,no signal,0 of 6
KFEQSMLYESRNKNSVA,NASQRES,QQYHRLPLS,GP_Gen,1.6 nM,6 of 6
KLSQSELYESRQANNVA,NASQRES,QQYHRLPLS,GP_Gibbs,760 pM,6 of 6
KSSGVVLYESHNKNSVA,NASTRMS,QQYHRLPLS,GP_HC,4.3 nM,6 of 6
KSSQSVLYISRNKNSVA,GASTRES,QQYHRLPLS,Ctrl,190 nM,6 of 6
KSSISYLYESRNKNSVA,EASTREL,QQYHRLPLM,GP_HC,54 nM,6 of 6
KVSQSMLYESRNKNSVA,DASTRES,QQYHRLPLS,GP_Gen,370 pM,6 of 6
KLSQSVLYESRNKNSVA,NASQREA,QQYHRLPLS,GP_Gen,530 pM,6 of 6
HVSQSVLQGQRNKNSVA,EASQRER,QQYHRLPLS,GP_Gibbs,910 pM,6 of 6
KLSQSVLYESRNKNSVA,NASTRLS,QDYHRLPLS,GP_Gen,1.0 nM,6 of 6
TISQLYNQATGMRNSVA,NNQTRTD,QQYFRLPLS,En_Gen,15 nM,6 of 6
KFSQSMLYESRNKNSVA,NASQRLS,QQYHRLPLS,GP_Gen,1.8 nM,6 of 6
KLSMSYRFETEEKNSIA,ELVTRMS,QQYHRLPLS,En_HC,8.2 nM,5 of 6
KLQQSVLYESRNKNSVA,EASTRED,QQYHRLPLS,GP_Gen,500 pM,6 of 6
KISQSVLYESRNKTSVA,NASTRES,QQYHRLPLS,Rand,1.1 nM,6 of 6
KISQMVKVGMTHGNSIA,EEAKRAD,QQYHRLPLA,En_Gen,5.8 nM,6 of 6
IIYDSVLTLSRNKNSVA,DNSTRES,QQYDRLPLS,En_HC,20 nM,6 of 6
KVSQSVLYESRNKNSVA,NASTRES,QQMHRLPLS,GP_HC,2.9 nM,6 of 6
MISDLTMYGLRNVNSVA,DLSNRGS,QQYDRLPLS,En_HC,40 nM,6 of 6
SMAYTQHFGFQQEKAIA,EVATREQ,QQYFRLPLT,En_Gibbs,5.2 nM,6 of 6

Repeated from above, the 3 best binders with a signal in all replicates:

CDR-L1,CDR-L2,CDR-L3,group,Kd,replicates with signal
KLQQSVEYESRNKNSVA,DASTRES,QQYHRLPLS,GP_Gen,290 pM,6 of 6
KVSQSMLYESRNKNSVA,DASTRES,QQYHRLPLS,GP_Gen,370 pM,6 of 6
KLQQSVLYESRNKNSVA,EASTRED,QQYHRLPLS,GP_Gen,500 pM,6 of 6

Reference: Li et al. 2023, doi:10.1038/s41467-023-39022-2. File: FLAb, binding data.